This is a selection; strong and weak results do not stand in their true shares. Active and inactive are the calls of the source.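 How the source made its calls: active means inhibition above a set limit, placed 3 SD over the median of all compounds (cut at about 26% in these data); inactive means the rest.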

In PubChem BioAssay AID775 (SRMLSC, 2007) one finds inhibition of the nicotinamide effect data, which are given here for twelve molecules.

This assay in a line: rescue of nicotinamide-shortened yeast lifespan – S. cerevisiae, OD615, primary screen (AID 775).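 Further: 0% = nicotinamide-treated wells and 100% = cells grown without nicotinamide.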 Particulars: S. cerevisiae growth with nicotinamide, at 10 µM, active compounds read high, deaD strain in restrictive glucose medium. Summed up:
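Test system: DeaD-strain S. cerevisiae / Buffer or medium: restrictive glucose medium / Also added: nicotinamide 1.5 mM / Doses: one concentration, 10 µM, DMSO 0.25% / Schedule: 48 h at 30 °C / Signal: OD615 measurement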
Consider `CCOc1ncccc1C(=O)NCC1(N2CCOCC2)CCCCC1`, for which the inhibition of the nicotinamide effect is inactive: -12%.
As for `CCC(CO)(C(=O)OC1CN2CCC1CC2)c1ccccc1` (configuration not stated), the inhibition of the nicotinamide effect was inactive: 5.91%.
On to `CCN1CCC(Nc2cccc(F)c2)CC1`, for which the inhibition of the nicotinamide effect is inactive: 4.99%.
Under `c1ccc(CN2CCC(Nc3ccccc3)CC2)cc1` stands inactive: -7.88%; under `O=C(OC1CN2CCC1CC2)C1c2ccccc2C=Cc2ccccc21` (configuration not stated), inactive: 5.62%.
Turning to `N/C(=N\O)c1c(N)no[n+]1[O-]`, the inhibition of the nicotinamide effect is inactive: -8.47%.
On to `N#CC1(Nc2ccccc2)CCN(CCc2ccccc2)CC1`, for which the inhibition of the nicotinamide effect was inactive: 0.92%.
On to `CN1CCN(CCOC(=O)C(O)(c2ccccc2)c2ccccc2)CC1`, for which the inhibition of the nicotinamide effect is inactive: 2.23%.
Take `O=C(NCC1(N2CCOCC2)CCCCC1)c1cc(=O)[nH]c2ccccc12`: the inhibition of the nicotinamide effect was inactive: -3.66%.
`COc1ccc(NC2CCN(CCc3ccccc3)CC2)c(OC)c1`: the inhibition of the nicotinamide effect is inactive: -0.84%.
Under `O=C(OC1CN2CCC1CC2)C1c2ccccc2Oc2ccccc21` (configuration not stated) stands inactive: -24.2%; under `O=C(NCC1(N2CCOCC2)CCCCC1)c1cc2ccccc2o1`, inactive: -6.6%.
